This test concerns ventral prostates (VP) and seminal vesicles (SV) of immature castrated rats. Kind of test: Immature castrated male rat model (antiandrogen activity). The format is in vivo. Particulars: TP dose used for antagonist tests.

On to `CCC(=O)O[C@H]1CC[C@H]2[C@@H]3CCC4=CC(=O)CC[C@]4(C)[C@H]3CC[C@]12C` [TP, Testosterone Propionate, reference compound], for which the ED80 is 0.1 mg.

The values above are taken from US6448405B1, “Steroid receptor modulator compounds and methods” (Ligand Pharmaceuticals Incorporated, priority 1994, dated 2002).
